The values that follow are results of earlier work, collected in publication PMC9727064, “Performance assessment and economic analysis of a human Liver-Chip for predictive toxicology” (Communications Medicine, 2022).

Where only a bound is given, the exact number is not on record here.

The subject of series [1] is 3D spheroid cultures of primary human hepatocytes. The following applies: cited from earlier work.
The subject of series [2] is clinical drug-induced liver injury. Conditions: clinical DILI severity category 1 to 5; cited from earlier work.

In the case of `O=C(O)Cc1ccccc1Nc1c(Cl)cccc1Cl` [Diclofenac], the Spheroid false negative result in series [1] (Yes/No, also No for drugs not tested in spheroid) is recorded as “No”. The “Garside DILI rank” value in series [2] is reported as 2.

`N[C@@H]1[C@H]2CN(c3nc4c(cc3F)c(=O)c(C(=O)O)cn4-c3ccc(F)cc3F)C[C@@H]12` [Trovafloxacin]: the “Spheroid MOS” value in series [1] (3D hepatic spheroids, previously published data) is greater than 24.9.
